What follows are molecules tested against recombinant human CCR5 receptor (Homo sapiens, UniProt P51681) (assay: in vitro radioligand binding assay: inhibition of iodinated MIP-1α binding to CCR5 membranes (scintillation proximity)). Conditions: displacement of 0.1 nM iodinated MIP-1α; membranes from Chinese hamster ovary cells expressing recombinant human CCR5; average if tested more than once.
Procedure: The ability of compounds to inhibit the binding of MIP-1α was assessed by an in vitro radioligand binding assay. Membranes were prepared from Chinese hamster ovary cells which expressed the recombinant human CCR5 receptor. These membranes were incubated with 0.1 nM iodinated MIP-1α, scintillation proximity beads and various concentrations of the compounds of the invention in 96-well plates. The amount of iodinated MIP-1α bound to the receptor was determined by scintillation counting. Competition curves were obtained for compounds and the concentration of compound which displaced 50% of bound iodinated MIP-1α was calculated (IC50).
In Table VI the results are presented as Pic50 values. A Pic50 value is the negative log (to base 10) of the IC50 result, so an IC50 of 1 μM (that is 1×10^−6M) gives a Pic50 of 6. If a compound was tested more than once then the data below is an average of the probative tests results.

Chains of the proteins cited; added tags and fusions are not shown.
UniProt P51681, whole entry: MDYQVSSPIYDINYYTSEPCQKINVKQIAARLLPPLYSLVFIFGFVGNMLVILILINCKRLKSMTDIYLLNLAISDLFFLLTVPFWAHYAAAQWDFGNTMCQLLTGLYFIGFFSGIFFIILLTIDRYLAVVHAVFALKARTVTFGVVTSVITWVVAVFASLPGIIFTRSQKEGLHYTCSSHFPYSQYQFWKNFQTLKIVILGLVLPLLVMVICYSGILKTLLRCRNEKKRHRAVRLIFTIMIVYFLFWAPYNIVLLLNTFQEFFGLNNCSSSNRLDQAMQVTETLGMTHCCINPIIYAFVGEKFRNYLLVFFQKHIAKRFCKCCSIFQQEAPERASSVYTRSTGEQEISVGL

Pic50	SMILES
6.8	CS(=O)(=O)c1ccc([C@@H](CCN2CCC(CCNS(=O)(=O)c3ccc(S(C)(=O)=O)cc3)CC2)c2cc(F)cc(F)c2)cc1
8.3	COc1ccc(S(=O)(=O)NCC2CCN(CC[C@@H](c3cc(F)cc(F)c3)C3CCN(S(C)(=O)=O)CC3)CC2)cc1OC
8.0	CS(=O)(=O)c1ccc([C@@H](CCN2CCC(CNS(=O)(=O)c3ccc(C#N)cc3)CC2)c2cc(F)cc(F)c2)cc1
7.7	CS(=O)(=O)c1ccc([C@@H](CCN2CCC(CNS(=O)(=O)c3ccc(Cl)cc3)CC2)c2cc(F)cc(F)c2)cc1
6.8	CS(=O)(=O)c1ccc([C@@H](CCN2CCC(CNS(=O)(=O)c3ccccc3F)CC2)c2cc(F)cc(F)c2)cc1
9.3	CS(=O)(=O)c1ccc(S(=O)(=O)NCC2CCN(CC[C@@H](c3cc(F)cc(F)c3)C3CCN(S(C)(=O)=O)CC3)CC2)cc1
